# Data as given in PubChem BioAssay AID624263 (National Center for Advancing Translational Sciences (NCATS), 2012).
# Only a part is listed here, and it is no random draw. Some salts and complexes are drawn in separate pieces, as the source files them; their charges need not balance. The source made the active and inactive calls. Calls come from the whole dose curve; as a rule, active = well fitted activation curve with a large enough effect; inconclusive = small, poorly fitted or top-dose-only effect; inactive = flat fitted curve, though single readings scatter; cell line not stated here.
# Test: A Quantitative High throughput Screen to Identify Chemical Modulators of PINK1 Expression; note: % of control where 0% means no effect; nearly all actives have a fitted effect of over 65% in size
# Settings: PINK1 immunofluorescence, high-content cytometry, 24 h; at 76.6 µM (top of the series) unless noted
row,SMILES,activation (PINK1 increase)
1,CC(C)(C)OC(=O)N1CCC(N(C(=O)c2ccccc2)c2ccc(F)cc2)CC1,inactive: 2.14%
2,COc1ccc(C(=O)NCC2(N3CCCCC3)CCCCC2)c(OC)c1OC,inactive: -1.88%
3,CCC(c1nnnn1C1CCCC1)N1CCC(n2c(=O)[nH]c3ccccc32)CC1 (stereo unspecified),inactive: 1.01%
4,COc1ccc(C(=O)NCC2(N3CCCCC3)CCCCC2)cc1,inactive: 0.519%
5,O=C(NCC1(N2CCCCC2)CCCCC1)c1cccs1,inactive: -0.152%
6,CCCCn1nnnc1C(CC)N1CCC(n2c(=O)[nH]c3ccccc32)CC1 (stereo unspecified),inactive: 0.45%
7,CCCCn1nnnc1C(c1cccs1)N1CCC(n2c(=O)[nH]c3ccccc32)CC1 (stereo unspecified),inactive: -1.34%
8,O=C(NCC1(N2CCCCC2)CCCCC1)c1ccc(=O)[nH]c1,inactive: 0.172%
9,Cc1cccc(NC2(C#N)CCN(Cc3ccccc3)CC2)c1,inactive: -0.0585%
10,CSc1ccccc1C(=O)NCC1(N2CCCCC2)CCCCC1,inactive: -0.165%
11,Cc1cc(C)cc(N(C(=O)c2ccccc2)C2CCN(C(=O)OC(C)(C)C)CC2)c1,inactive: 17.3%
12,O=C(NCC1(N2CCCCC2)CCCCC1)c1ccc(Cl)nc1,inactive: 1.74%
13,O=c1[nH]c2ccccc2n1C1CCN(C(c2ccccc2OC(F)(F)F)c2nnnn2C2CCCCC2)CC1 (stereo unspecified),inactive: 8.59%
14,O=C(NCC1(N2CCOCC2)CCCCC1)c1cc2ccccc2o1,inactive: -2%
15,COc1ccc(Cl)cc1C(=O)NCC1(N2CCOCC2)CCCCC1,inactive: 0.93%
16,O=C1C(O)=C([N+](=O)[O-])C(=O)C(O)=C1[N+](=O)[O-],inactive: 1.4%
17,O=C(NCC1(N2CCCCC2)CCCCC1)c1ccc(Cl)s1,inactive: 0.192%
18,N#CC1(Nc2ccccc2)CCN(Cc2ccccc2)CC1,inactive: -1.62%
19,O=C(OC1CN2CCC1CC2)C1c2ccccc2Oc2ccccc21 (stereo unspecified),inactive: 0.0187%
20,O=c1[nH]c2ccccc2n1C1CCN(C(c2cc3ccccc3o2)c2nnnn2C2CCCCC2)CC1 (stereo unspecified),inactive: 5.81%
21,CCCCn1nnnc1C(c1ccc(OC)cc1)N1CCC(n2c(=O)[nH]c3ccccc32)CC1 (stereo unspecified),inactive: -0.217%
22,CCOC(=O)N1CCC(Nc2ccc(OC)cc2)CC1,inactive: -0.394%
23,O=C1CCN(Cc2ccccc2)CC1,inactive: 0.893%

row,SMILES,activation (PINK1 increase)
1,O=C(NCC1(N2CCOCC2)CCCCC1)c1ccc(Cl)cc1,inactive: 1.04%
2,CC(C)(C)n1nnnc1C(c1ccccc1)N1CCC(n2c(=O)[nH]c3ccccc32)CC1 (stereo unspecified),inactive: -0.303%
3,CCOc1ccc(C)cc1CN(CCCl)CCCl,inactive: 0.784%
4,COc1ccccc1C(=O)NCC1(N2CCOCC2)CCCCC1,inactive: -0.331%
5,COc1ccc(NC2CCN(CCc3ccccc3)CC2)c(OC)c1,inactive: 3.17% [at 38.3 µM]
6,CCOC(=O)N1CCC(Nc2ccc(F)cc2)CC1,inactive: 0.179%
7,CCCCn1nnnc1C(c1cc2ccccc2o1)N1CCC(n2c(=O)[nH]c3ccccc32)CC1 (stereo unspecified),inactive: 1.91%
8,O=P1(N(CCCl)CCCl)SCCCS1,inactive: 1.6%
9,CCCCOc1ccc(C(=O)NCC2(N3CCOCC3)CCCCC2)cc1,inactive: 1.55%
10,O=C(NCC1(N2CCCCC2)CCCCC1)c1ccc(F)cc1,inactive: 0.758%
11,O=c1[nH]c2ccccc2n1C1CCN(C(c2ccccc2)c2nnnn2C2CCCCC2)CC1 (stereo unspecified),inactive: 0.391%
12,CCOC(=O)N1CCC(Nc2cccc(C)c2)CC1,inactive: 2.99%
13,COc1cc(C(=O)NCC2(N(C)C)CCCCC2)ccc1OC(F)F,inactive: -0.364%
14,O=c1[nH]c2ccccc2n1C1CCN(C(c2cccc3ccccc23)c2nnnn2C2CCCC2)CC1 (stereo unspecified),inactive: 0.365%
15,O=C(NCC1(N2CCCCC2)CCCCC1)c1ccc(OC(F)F)cc1,inactive: 1.65%
16,CC(C)(C)n1nnnc1C(c1ccccc1OC(F)(F)F)N1CCC(n2c(=O)[nH]c3ccccc32)CC1 (stereo unspecified),inactive: -0.63%
17,O=c1[nH]c2ccccc2n1C1CCN(C(c2ccccc2OC(F)(F)F)c2nnnn2C2CCCC2)CC1 (stereo unspecified),inactive: 7.99%
18,N#CC1(Nc2ccccc2)CCN(CCc2ccccc2)CC1,inactive: -1.04%
19,CCN1CCC(Nc2ccc(Cl)cc2)CC1,inactive: -1.62%
20,CCOc1ccc(C(=O)NCC2(N3CCOCC3)CCCCC2)cc1,inactive: -1.11%
21,O=C(NCC1(N2CCCCC2)CCCCC1)c1cccc([N+](=O)[O-])c1,inactive: -1.02%
22,CSc1ccc(C(=O)NCC2(N3CCOCC3)CCCCC2)cc1,inactive: -0.324%
23,O=[N+]([O-])c1cc([N+](=O)[O-])c(NCC2CCS(=O)(=O)C2)c([N+](=O)[O-])c1 (stereo unspecified),inactive: -1.39%

row,SMILES,activation (PINK1 increase)
1,CCCOc1cccc(C(=O)NCC2(N3CCOCC3)CCCCC2)c1,inactive: 0.179%
2,O=C(NCC1(N2CCCCC2)CCCCC1)c1cccc(C(F)(F)F)c1,inactive: 2.3%
3,COc1cc(C(=O)NCC2(N3CCCCC3)CCCCC2)ccc1OC(F)F,inactive: 4.46%
4,O=C(NCC1(N2CCOCC2)CCCCC1)c1cc(=O)[nH]c2ccccc12,inactive: -1.52%
5,CN1CCN(CCOC(=O)C(O)(c2ccccc2)c2ccccc2)CC1,inactive: -2.41%
6,CC(C)c1ccc(C(=O)NCC2(N3CCOCC3)CCCCC2)cc1,inactive: -1.57%
7,COc1ccc(NC2CCN(C(=O)OC(C)(C)C)CC2)cc1,inactive: 1.58%
8,CCCCn1nnnc1C(c1cccc2ccccc12)N1CCC(n2c(=O)[nH]c3ccccc32)CC1 (stereo unspecified),inactive: 1.86%
9,CCCCn1nnnc1C(c1ccccc1OC(F)(F)F)N1CCC(n2c(=O)[nH]c3ccccc32)CC1 (stereo unspecified),inactive: 3.77%
10,CC(C)c1ccc(NC2CCN(C(=O)OC(C)(C)C)CC2)cc1,inactive: 14.3%
11,O=[N+]([O-])c1cc([N+](=O)[O-])c(OC2CCCCC2O)c([N+](=O)[O-])c1 (stereo unspecified),inactive: 0.657%
12,CN(C)c1cccc(C(=O)NCC2(N3CCCCC3)CCCCC2)c1,inactive: 1.08%
13,COc1ccc(CN(CCCl)CCCl)cc1Cl,inactive: 0.285%
14,CCC(c1nnnn1C(C)(C)C)N1CCC(n2c(=O)[nH]c3ccccc32)CC1 (stereo unspecified),inactive: 4.63%
15,O=C(NCC1(N2CCOCC2)CCCCC1)c1cc(F)c(F)cc1Cl,inactive: 2.12%
16,COc1cc(OC)c(C(=O)NCC2(N(C)C)CCCCC2)cc1OC,inactive: -0.0909%
17,CCCCn1nnnc1C(c1ccnc2ccccc12)N1CCC(n2c(=O)[nH]c3ccccc32)CC1 (stereo unspecified),inactive: -0.239%
18,O=C(OC1CN2CCC1CC2)c1ccc([N+](=O)[O-])cc1 (stereo unspecified),inactive: 0.453%
19,CN1CCC(Nc2cccc(F)c2)CC1,inactive: 2.69%
20,COc1ccc2c(c1O)-c1c(O)c(OC)cc3c1[C@H](C2)[N+](C)(C)CC3.O=[N+]([O-])c1cc([N+](=O)[O-])c([O-])c([N+](=O)[O-])c1[O-],inactive: -0.442%
21,O=C(NCC1(N2CCCCC2)CCCCC1)c1cncc(Br)c1,inactive: -1.42%
22,COc1ccc(C(c2nnnn2C2CCCC2)N2CCC(n3c(=O)[nH]c4ccccc43)CC2)cc1 (stereo unspecified),inactive: -0.263%
23,O=C(NCC1(N2CCOCC2)CCCCC1)c1ccccc1Br,inactive: -1.06%

row,SMILES,activation (PINK1 increase)
1,CCCOc1ccc(C(=O)NCC2(N(C)C)CCCCC2)cc1OC,inactive: 0.657%
2,CCCCOc1ccccc1C(=O)NCC1(N2CCOCC2)CCCCC1,inactive: -0.196%
3,Cc1ccc(C(=O)NCC2(N(C)C)CCCCC2)o1,inactive: 1.8%
4,COc1cc(C(=O)NCC2(N3CCOCC3)CCCCC2)cc(OC)c1C,inactive: 0.545%
5,CCCCn1nnnc1C(c1ccccc1)N1CCC(n2c(=O)[nH]c3ccccc32)CC1 (stereo unspecified),inactive: -1.06%
6,O=C(NCC1(N2CCOCC2)CCCCC1)c1cc(Br)ccc1Cl,inactive: -0.252%
7,O=Cc1ccc(N(CCCl)CCCl)cc1,inactive: 1.16%
8,O=c1[nH]c2ccccc2n1C1CCN(C(c2cccs2)c2nnnn2C2CCCCC2)CC1 (stereo unspecified),inactive: 0.404%
9,O=c1[nH]c2ccccc2n1C1CCN(C(c2ccnc3ccccc23)c2nnnn2C2CCCC2)CC1 (stereo unspecified),inactive: -0.872%
10,COc1ccc(C(=O)NCC2(N3CCOCC3)CCCCC2)cc1OC,inactive: -1.36%
11,CCOC(=O)N1CCC(Nc2ccc(C)cc2)CC1,inactive: -0.811%
12,COc1cccc(C(c2nnnn2C(C)(C)C)N2CCC(n3c(=O)[nH]c4ccccc43)CC2)c1OC (stereo unspecified),inactive: 3.62%
13,N/C(=N\O)c1c(N)no[n+]1[O-],inactive: 0.945%
14,O=c1[nH]c2ccccc2n1C1CCN(C(c2cccs2)c2nnnn2C2CCCC2)CC1 (stereo unspecified),inactive: 0.0509%
15,O=C(O)c1cccc(Nc2c([N+](=O)[O-])cc([N+](=O)[O-])cc2[N+](=O)[O-])c1,inactive: 1.4%
16,CCc1cc(C(=O)NCC2(N3CCCCC3)CCCCC2)sc1C,inactive: 5.33%
17,O=C(OC1CN2CCC1CC2)C1c2ccccc2C=Cc2ccccc21 (stereo unspecified),inactive: -1.05%
18,CCCCn1nnnc1C(c1cccc(OC)c1OC)N1CCC(n2c(=O)[nH]c3ccccc32)CC1 (stereo unspecified),inactive: -1.33%
19,N#Cc1ccc(C(=O)NCC2(N3CCCCC3)CCCCC2)cc1,inactive: 1.47%
20,O=C(NCC1(N2CCOCC2)CCCCC1)c1ccccc1[N+](=O)[O-],inactive: 2.33%
21,CC(C)(C)OC(=O)N1CCC(N(C(=O)c2ccccc2)c2ccc(Cl)cc2)CC1,inactive: 6.7%
22,O=C(NCC1(N2CCOCC2)CCCCC1)c1ccc([N+](=O)[O-])cc1,inactive: 1.77%
